Source: patent publication US20200407708A1

Sequences of proteins named here, by UniProt entry; tags and fusion partners are left off. Residues count along the entry.
UniProt P22629, 37-163 limits assumed: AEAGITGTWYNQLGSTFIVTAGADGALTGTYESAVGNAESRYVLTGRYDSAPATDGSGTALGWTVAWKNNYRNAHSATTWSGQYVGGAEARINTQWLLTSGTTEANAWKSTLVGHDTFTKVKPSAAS

Molecular target: streptavidin (UniProt P22629)
Test: gel shift with streptavidin

percent of protein biotinylated (shifted in the presence of streptavidin): 90%
Substance: biotinylated MNase-SpyCatcher002 (S50C)
